Assay results as given in patent US20100291010A1, “NOVEL ESTERS AND COMPOSITIONS AND USES THEREOF” (INNOSPEC LIMITED, priority 2007, published 2010).

Assay: Sunscreen solubilities in esters (25° C.)
Text: These two sunscreens are difficult to dissolve and keep in solution for use in sunscreen formulations for optimal SPF (Sun-Protection Factors). Higher solvency for a sunscreen ingredient is described as it allows higher concentrations of the sunscreen active ingredient in a formulation. […] The liquid organic sunscreens that are commonly used as octylsalicylate (OS) and octyl-methoxycinnamate (OMC).

What does the source list for “butyl-methoxy dibenzoyl methane [Parsol 1789]”?
Solubility in Additive A (%) (solvent Additive A): 23%; Solubility in Finester LP (%) (solvent Finester LP): 6%; Solubility in Finsolv TN (%) (solvent Finsolv TN): 13%
